Assay [1] has as its target T1, human cannabinoid receptor CB2 (Homo sapiens, UniProt P34972). Briefly: yeast CB2 NanoLuc reporter dose-response (agonist), A2A null control strain.
Assay [2] has as its target T1, human cannabinoid receptor CB2. Briefly: yeast CB2 NanoLuc reporter, antagonism of CP55940, A2A null control strain.

Chains of the proteins cited; added tags and fusions are not shown.
UniProt P34972, whole entry: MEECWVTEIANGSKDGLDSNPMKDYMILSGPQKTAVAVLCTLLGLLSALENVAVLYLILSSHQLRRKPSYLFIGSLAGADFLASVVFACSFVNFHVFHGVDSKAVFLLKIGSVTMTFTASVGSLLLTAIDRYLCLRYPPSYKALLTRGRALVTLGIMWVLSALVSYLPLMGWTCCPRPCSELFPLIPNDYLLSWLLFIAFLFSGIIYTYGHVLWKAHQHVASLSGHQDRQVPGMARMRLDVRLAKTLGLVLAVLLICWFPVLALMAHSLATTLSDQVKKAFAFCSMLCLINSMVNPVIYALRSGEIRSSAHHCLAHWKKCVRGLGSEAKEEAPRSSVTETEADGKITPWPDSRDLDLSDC

Each structure is given as a SMILES string.

One may read the EC50 as the midpoint of the concentration-response curve. A lower EC50 goes with greater potency. The molecule `CC(C)C(=O)NC(NC(=S)Nc1ccccc1C(=O)O)C(Cl)(Cl)Cl` (stereo not drawn) gave a concentration giving a half-maximal response (EC50) in assay [1] of 1500 nM.
A word on the IC50: it is the midpoint of a concentration-inhibition curve. A higher IC50 goes with weaker potency in that assay. Take `CCc1ccc(NC(=O)Cn2cnc3scc(-c4ccccc4)c3c2=O)cc1`: the IC50 in assay [2] stood at 710 nM.
`COc1cc(NC(=O)c2oc3ccc(Cl)cc3c2C)ccc1NC(=O)c1ccco1`: the EC50 in assay [1] worked out at 389 nM.

Source of the values: paper PMC9237071.
